Data on 1 substance can be found in patent US12410231B2, “Natural killer cell products and methods” (Board of Regents of The University of Texas System, priority 2018, dated 2025).

One series has as its system SKOV3. Kind of series: ADCC / co-culture with SKOV3 (IncuCyte). Format: cell-based.
The next series has as its system OE19. Kind of series: ADCC / co-culture with OE19 (IncuCyte). The format is cell-based. As to conditions: 0E19. On the procedure: FIGS. 19A-19D Enhancing NK cell anti-tumor efficacy by antibody-dependent cellular cytotoxicity. […] SKOV3 (RFP, red) proliferation were measured by live-cell imaging using an IncuCyte imager. After 72 h, SKOV3 killing was calculated relative to tumor cells alone. […] Two-way ANOVA was used to do comparison. P<0.0001. After 72 h of co-culture SKOV3RFP proliferation was measured by IncuCyte (FIG. 19C). After 71 h, co-culture with different transduced NK cells OE19GFP proliferation was measured by IncuCyte. Two-way ANOVA were used do comparison. P<0.01. (FIG. 19D)
Cytotoxicity was measured by luciferase activity assay 24 hrs later following the manufacturer's protocols. The findings are reported as specific lysis relative to THP-1 or other tumor cell targets. Additional co-culture assays were analyzed by flow cytometry for the frequency of tumor cells GFP+ populations. In some long term assays, gene modified NKs were co-cultured with tumor cell targets either labeled with eGFP or RFP for 7 days in the presence of 200 U/ml IL-2. Tumor cells growths were monitored by real-time fluorescent microscopy (IncuCyte; Essen Biosciences).
Antibody-dependent cell-mediated cytotoxicity (ADCC) is one of the mechanisms by which NK cells are involved in tumor cells killing. […]

On to “Herceptin: a monoclonal antibody; tested against HER2+ tumor cells”, for which the “effect of Herceptin on iRC9 NK cell-mediated tumor target killing” value in the series on SKOV3 (300 ng/ml Herceptin) is on record as “improved NK cell-mediated tumor target killing”. Besides, the “synergy of Herceptin Rimiducid combination treatments” value in the series with SKOV3 (300 ng/ml Herceptin and 1 nM rimiducid) is given as “little synergistic effects”. The “effect of Herceptin on iMC.HER2CAR.ζ cytotoxicity” value in the series on SKOV3 (SKOV3) and in the series with OE19 was “did not affect” in each case.
